The text below walks through data of ChEMBL document CHEMBL1125007 (J Med Chem, 1990).

Structures are written as SMILES.

Data set [1] is described as follows: Rate constant for hydrolysis in aqueous acetone. The data set is classed as ADME. Further details: scale not given here. As to conditions: buffer.
Data set [2] in a line: Rate constant for alkylation of 4-(4-nitrobenzyl)pyridine. In kind it is ADME.

In data set [1], `Cc1ccc(N(CCCl)CCCl)cc1` gave a KH of 47100 s⁻¹. The same compound yielded a KNBP in data set [2] of 1.11e+06 s⁻¹.
